# Patent US20230122249A1, “1H-PYRAZOLO[4,3-d]PYRIMIDINE COMPOUNDS AS TOLL-LIKE RECEPTOR 7 (TLR7) AGONISTS” (BRISTOL-MYERS SQUIBB COMPANY, priority 2020, published 2023)
# Sequences of proteins named here, by UniProt entry; tags and fusion partners are left off. Residues count along the entry.
# UniProt Q9NYK1, 27-1049 limits assumed: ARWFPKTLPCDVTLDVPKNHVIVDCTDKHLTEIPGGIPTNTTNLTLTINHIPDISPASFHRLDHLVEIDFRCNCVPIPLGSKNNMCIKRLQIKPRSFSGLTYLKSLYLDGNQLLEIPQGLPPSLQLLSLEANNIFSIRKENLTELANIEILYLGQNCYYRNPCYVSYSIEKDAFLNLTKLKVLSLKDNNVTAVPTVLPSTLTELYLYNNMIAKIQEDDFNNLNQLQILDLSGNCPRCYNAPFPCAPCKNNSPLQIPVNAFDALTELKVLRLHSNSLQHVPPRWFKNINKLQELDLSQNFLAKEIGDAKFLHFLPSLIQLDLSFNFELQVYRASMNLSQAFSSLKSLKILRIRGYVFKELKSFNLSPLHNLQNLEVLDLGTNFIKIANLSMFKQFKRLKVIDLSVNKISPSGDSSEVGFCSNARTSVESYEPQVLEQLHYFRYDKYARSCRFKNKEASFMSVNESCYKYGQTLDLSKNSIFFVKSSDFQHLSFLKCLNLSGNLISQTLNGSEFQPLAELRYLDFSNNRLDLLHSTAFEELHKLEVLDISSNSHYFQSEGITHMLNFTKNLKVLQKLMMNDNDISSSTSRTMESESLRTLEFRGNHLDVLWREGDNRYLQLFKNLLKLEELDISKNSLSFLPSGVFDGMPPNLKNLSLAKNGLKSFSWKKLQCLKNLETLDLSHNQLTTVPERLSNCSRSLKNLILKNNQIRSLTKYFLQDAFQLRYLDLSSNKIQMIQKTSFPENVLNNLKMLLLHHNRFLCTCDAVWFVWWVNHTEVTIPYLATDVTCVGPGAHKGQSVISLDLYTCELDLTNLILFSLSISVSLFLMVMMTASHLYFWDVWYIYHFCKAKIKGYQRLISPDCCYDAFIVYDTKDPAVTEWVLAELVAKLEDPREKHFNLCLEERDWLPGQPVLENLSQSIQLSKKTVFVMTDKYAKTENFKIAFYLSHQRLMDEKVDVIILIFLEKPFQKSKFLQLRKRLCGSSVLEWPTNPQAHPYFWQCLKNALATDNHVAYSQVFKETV
# Key:
# human TLR7 = human TLR7 (Homo sapiens, UniProt Q9NYK1); assay: Human TLR7 agonist activity (hTLR7 reporter) assay in HEK-Blue TLR7 cells, SEAP readout; conditions: read-out: hTLR7 Reporter EC50, 18 h treatment, average where assay repeated
# Procedure: This procedure describes a method for assaying human TLR7 (hTLR7) agonist activity of the compounds disclosed in this specification.
# HEK-Blue™ TLR7 cells were added to each well of a 384-well tissue-culture plate (15,000 cells per well) and incubated 16-18 h at 37° C., 5% CO2. Compounds (100 nl) were dispensed into wells containing the HEK-Blue™ TLR cells and the treated cells were incubated at 37° C., 5% CO2. After 18 h treatment ten microliters of freshly-prepared Quanti-Blue™ reagent (Invivogen) was added to each well, incubated for 30 min (37° C., 5% CO2) and SEAP levels measured using an Envision plate reader (OD=620 nm). The half maximal effective concentration values (EC50; compound concentration which induced a response halfway between the assay baseline and maximum) were calculated.
# [1] = tested on: CD69 in human whole blood; assay: Induction of CD69 in human whole blood (hWB); conditions: read-out: hWB CD69 EC50; heparinized human whole blood, 17 h, CD69 surface staining; 100% set to 1 uM resiquimod; average where assay repeated
# Procedure: The induction of Type I interferon (IFN) MX-1 genes and the B-cell activation marker CD69 are downstream events that occur upon activation of the TLR7 pathway. The following is a human whole blood assay that measures their induction in response to a TLR7 agonist.
# Heparinized human whole blood was harvested from human subjects and treated with test TLR7 agonist compounds at 1 mM. The blood was diluted with RPMI 1640 media and Echo was used to predot 10 nL per well giving a final concentration of 1 uM (10 nL in 10 uL of blood). After mixing on a shaker for 30 sec, the plates were covered and placed in a 37° C. chamber for o/n=17 hrs. Fixing/lysis buffer was prepared (5×->1×in H2O, warm at 37° C.; Cat# BD 558049) and kept the perm buffer (on ice) for later use.
# For surface markers staining (CD69): prepared surface Abs: 0.045 ul hCD14-FITC (ThermoFisher Cat # MHCD1401)+0.6 ul hCD19-ef450 (ThermoFisher Cat #48-0198-42)+1.5 ul hCD69-PE (cat# BD555531)+0.855 ul FACS buffer. […]
# Centrifuge at 2000 rpm for 5 minutes aspirate with HCS plate washer, mix on shaker for 30 sec and then wash with 70 uL in dPBS and pelleted 2 xs (2000 rpm for 5 min) and 50 ul wash in FACS buffer pelleted 1 xs(2000 rpm for 5 min). […] Resuspend 20 ul (35 uL total per well) of FACS buffer and cover with foil and place in 4° C. to read the following day. Plates were read on iQuePlus. […]
structure (smiles),measurement,setting,value
CCC[C@@H](CCO)Nc1nc(N)nc2cnn(Cc3ncc(C4=CC5(CCN(CC6CC6)CC5)C4)cc3OC)c12,EC50,human TLR7,49.8 nM
same,EC50,[1],8.4 nM
